Reference: PMC11181336, “Discovery of ITI-333, a Novel Orally Bioavailable Molecule Targeting Multiple Receptors for the Treatment of Pain and Other Disorders” (Journal of Medicinal Chemistry, 2024)

Protein sequences, listed by entry. Tags and fused reporters are not part of them.
UniProt P28223, whole entry, looked up: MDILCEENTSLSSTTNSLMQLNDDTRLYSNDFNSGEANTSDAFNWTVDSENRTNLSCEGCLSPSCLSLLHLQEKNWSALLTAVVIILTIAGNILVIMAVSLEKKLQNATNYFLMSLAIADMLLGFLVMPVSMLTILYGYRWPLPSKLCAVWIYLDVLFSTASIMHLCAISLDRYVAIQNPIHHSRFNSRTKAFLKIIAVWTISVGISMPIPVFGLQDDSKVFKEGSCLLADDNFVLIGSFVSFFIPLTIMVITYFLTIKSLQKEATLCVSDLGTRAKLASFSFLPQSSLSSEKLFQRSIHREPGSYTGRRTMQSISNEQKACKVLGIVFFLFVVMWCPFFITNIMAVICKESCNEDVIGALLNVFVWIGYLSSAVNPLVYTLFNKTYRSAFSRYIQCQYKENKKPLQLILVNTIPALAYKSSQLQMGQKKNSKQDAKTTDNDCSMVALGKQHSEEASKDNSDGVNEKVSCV
UniProt P14416, whole entry, looked up: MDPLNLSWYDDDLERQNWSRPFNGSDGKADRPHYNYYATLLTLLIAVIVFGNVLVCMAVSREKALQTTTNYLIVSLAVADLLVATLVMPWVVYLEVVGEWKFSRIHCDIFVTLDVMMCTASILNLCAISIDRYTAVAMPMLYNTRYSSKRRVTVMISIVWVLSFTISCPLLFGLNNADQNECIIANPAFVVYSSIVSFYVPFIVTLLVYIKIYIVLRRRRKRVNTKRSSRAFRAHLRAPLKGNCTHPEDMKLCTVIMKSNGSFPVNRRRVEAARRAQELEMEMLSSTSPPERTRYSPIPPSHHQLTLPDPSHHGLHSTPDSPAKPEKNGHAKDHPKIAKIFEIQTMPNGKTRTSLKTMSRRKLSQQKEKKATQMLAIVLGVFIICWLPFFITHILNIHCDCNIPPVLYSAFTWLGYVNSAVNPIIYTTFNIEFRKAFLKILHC

Experiments:
[1] = target: human full-length recombinant serotonin 5-HT2A receptors (Homo sapiens, UniProt P28223); experiment: 5-HT2A receptor radioligand binding, [125I]DOI displacement; conditions: read-out: 5-HT2A Ki
[2] = target: human recombinant dopamine D2 short receptor (Homo sapiens, UniProt P14416); experiment: Dopamine D2 receptor binding, [3H]7-OH-DPAT displacement; conditions: read-out: D2 Ki

Compound: O=C1CN2c3c(cccc3[C@@H]3CN(CCCSc4ccc(F)cc4)CC[C@@H]32)N1
- Ki [1]: 2.5 nM

Compound: Cn1nc(CCCN2CC[C@H]3[C@@H](C2)c2cccc4c2N3CC(=O)N4)c2ccc(F)cc21
- Ki [1]: 12.4 nM

Compound: O=C1CN2c3c(cccc3[C@@H]3CN(CCCCc4ccc(F)cc4)CC[C@@H]32)N1
- Ki [1]: 3.7 nM

Compound: O=C1CN2c3c(cccc3[C@@H]3CN(CCCOc4ccc(F)c(O)c4)CC[C@@H]32)N1
- Ki [1]: 110 nM

Compound: CC1(C)C(=O)Nc2cccc3c2N1[C@H]1CCN(CCCOc2ccc(F)cc2)C[C@@H]31
- Ki [1]: 8.6 nM
- Ki [2]: 53 nM

Compound: O=C1CN2c3c(cccc3[C@@H]3CN(CCCOc4ccc(F)cc4F)CC[C@@H]32)N1
- Ki [1]: 15.2 nM

Compound: O=C1CN2c3c(cccc3[C@@H]3CN(CCCOc4ccc(F)cc4O)CC[C@@H]32)N1
- Ki [1]: 19 nM
- Ki [2]: 67 nM
